Measured values as given in PubChem BioAssay AID1508623 (National Center for Advancing Translational Sciences (NCATS), 2021).
Where “and” joins values, the source holds several entries; their conditions need not be identical. Equal values may be shown once. Only a part is listed here, and it is no random draw. Results filed as inconclusive are left out. Calls of active or inactive are those of the source. The call rests on the fitted dose curve; in most records, active means well fitted inhibition curve with a large enough effect; inconclusive means small, poorly fitted or top-dose-only effect; inactive means no such curve, though single readings can be large or run the other way.

test: Primary qHTS for Identification of Small Molecule Inhibitors of Huntingtin Promoter Activity; conditions: HEK293 HTT promoter firefly luciferase reporter (activity 0% = vehicle and -100% = no light), 24 h; at 57.5 µM (top of the series) unless noted; further: nearly all actives have a fitted effect of over 50% in size
Text: Assay Provider: Russell L. Margolis M.D.
Department Neurology, Johns Hopkins University School of Medicine, Baltimore, MD
Huntington's Disease (HD) is a neurodegenerative disorder caused by a CAG repeat expansion in exon 1 of huntingtin (HTT). While there are currently no disease-modifying treatments for HD, recent efforts have focused on development of nucleotide-based therapeutics to lower HTT expression. As an alternative to siRNA or oligonucleotide methods, we hypothesized that suppression of HTT expression might be accomplished by small molecules that either (1) directly decrease HTT expression by suppressing HTT promoter activity or (2) indirectly decrease HTT expression by increasing the promoter activity of HTT-AS, the gene antisense to HTT that appears to inhibit expression of HTT.
We developed and employed a high throughput screen for modifiers of HTT and HTT-AS promoter activity using luminescent reporter HEK293 cells; of the 52,041 compounds tested, we identified 898 replicable hits. We used a rigorous stepwise approach to assess compound toxicity and the capacity of the compounds to specifically lower huntingtin protein in 5 different cell lines, including HEK293 cells, HD lymphoblastoid cells, mouse primary neurons, HD iPSCs differentiated into cortical-like neurons, and HD hESCs. We found no compounds which were able to lower huntingtin without lowering cell viability in all assays, though the potential efficacy of a few compounds at non-toxic doses could not be excluded.
SEQUENCE No. (1, 2, 3, etc.); […] […]
7; Detection; Luminescence; FLuc […]
1; High-throughput screening, measuring luminescence from a Hek293 luciferase reporter, was performed in 1,536 well white-walled tissue-culture treated plates. […]
4; Cells were then incubated for 24 hours at 37 degrees C prior to luminescence measurements.
5; In all cases, luminescence was measured using the Dual-Glo Luciferase Reporter Assay System (Promega) following the manufacturer's instructions. […]
7; Luminescence signal was obtained using the PerkinElmer ViewLux plate reader. […]

Compound | activity change, negative = inhibition
CCC(=O)N(c1ccccc1)C1(COC)CCN(CCc2cccs2)CC1 | inactive: -9.49% [at 116 µM]
CCC(=O)N(c1ccccc1)C1(COC)CCN(CCn2nnn(CC)c2=O)CC1 | inactive: -2.18% [at 116 µM]
CN(CCCl)CCCl | inactive: -13.6% and inactive: -12.3%
